# Test results as given in PubChem BioAssay AID2766 (Sanford-Burnham Center for Chemical Genomics, 2010).
# Chains of the proteins cited; added tags and fusions are not shown. Lines headed by an entry give the natural chain unless they say otherwise; changes in a name come on top.
# UniProt P35414: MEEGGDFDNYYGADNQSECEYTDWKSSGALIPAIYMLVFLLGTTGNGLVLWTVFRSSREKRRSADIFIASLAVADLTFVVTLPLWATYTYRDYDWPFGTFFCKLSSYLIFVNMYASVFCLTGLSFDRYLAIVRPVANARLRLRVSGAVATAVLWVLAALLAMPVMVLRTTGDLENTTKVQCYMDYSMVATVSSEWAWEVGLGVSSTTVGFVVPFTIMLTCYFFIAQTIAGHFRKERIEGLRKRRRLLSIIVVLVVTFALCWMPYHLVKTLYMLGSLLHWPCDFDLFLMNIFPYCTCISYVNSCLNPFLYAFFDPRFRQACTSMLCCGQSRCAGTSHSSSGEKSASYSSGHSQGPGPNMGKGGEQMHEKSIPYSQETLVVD
# The entries are a selection whose mix differs from that of the whole data set. Active and inactive are the calls of the source. Rule as the data show it: active = inhibition above about 50%; inactive = the rest.
# Target: Apelin receptor (Homo sapiens) (UniProt P35414)
# Assay: apelin receptor inhibitors, beta-arrestin readout – cell-based, luminescence, single concentration, uHTS hits, confirmation (AID 2766)
# Conditions: APJ beta-arrestin recruitment, antagonist mode, at 20 µM, hits give high values
smiles,measurement,value
Cc1ccnc(SCc2cc(=O)c(OC(=O)c3ccc(Cl)c([N+](=O)[O-])c3)co2)n1,inhibition,active: 71.6%
